One experiment concerns the target Carbonic anhydrase 1 (Homo sapiens, UniProt P00915). In words: ASSAY_NAME: ChEMBL_2499729 DESCRIPTION: Inhibition of recombinant human CA-I incubated for 15 mins by stop-flow method.
The next experiment concerns the target Carbonic anhydrase 2 (Homo sapiens, UniProt P00918). Nature of the experiment: ASSAY_NAME: ChEMBL_2499730 DESCRIPTION: Inhibition of recombinant human CA-II incubated for 15 mins by stop-flow method.
In a further experiment the target is Carbonic anhydrase 4 (Homo sapiens, UniProt P22748). In words: ASSAY_NAME: ChEMBL_2499731 DESCRIPTION: Inhibition of recombinant human CA-IV incubated for 15 mins by stop-flow method.
In the next experiment the target is Carbonic anhydrase 9 (Homo sapiens, UniProt Q16790). In words: ASSAY_NAME: ChEMBL_2499734 DESCRIPTION: Inhibition of recombinant human CA-IX incubated for 15 mins by stop-flow method.
The target in another experiment is Carbonic anhydrase 12 (Homo sapiens, UniProt O43570). In words: ASSAY_NAME: ChEMBL_2499735 DESCRIPTION: Inhibition of recombinant human CA-XII incubated for 15 mins by stop-flow method.
For a further experiment, the target named is Carbonic anhydrase 7 (Homo sapiens, UniProt P43166). Nature of the experiment: ASSAY_NAME: ChEMBL_2499733 DESCRIPTION: Inhibition of recombinant human CA-VII incubated for 15 mins by stop-flow method.
In experiment [1] the target is Carbonic anhydrase 5A, mitochondrial (Homo sapiens, UniProt P35218). Nature of the experiment: ASSAY_NAME: ChEMBL_2499732 DESCRIPTION: Inhibition of recombinant human CA-VA incubated for 15 mins by stop-flow method.
For another experiment, the target named is Carbonic anhydrase 14 (Homo sapiens, UniProt Q9ULX7). Nature of the experiment: ASSAY_NAME: ChEMBL_2499737 DESCRIPTION: Inhibition of recombinant human CA-XIV incubated for 15 mins by stop-flow method.
The next experiment deals with Carbonic anhydrase 13 (Homo sapiens, UniProt Q8N1Q1). Nature of the experiment: ASSAY_NAME: ChEMBL_2499736 DESCRIPTION: Inhibition of recombinant human CA-XIII incubated for 15 mins by stop-flow method.

By UniProt entry, the sequences of proteins in these tests, tags left out. Where a name states a change or a piece, a line headed by the entry shows the natural chain unless it says otherwise. Residues count along the entry.
UniProt P00915, 2-261 limits assumed: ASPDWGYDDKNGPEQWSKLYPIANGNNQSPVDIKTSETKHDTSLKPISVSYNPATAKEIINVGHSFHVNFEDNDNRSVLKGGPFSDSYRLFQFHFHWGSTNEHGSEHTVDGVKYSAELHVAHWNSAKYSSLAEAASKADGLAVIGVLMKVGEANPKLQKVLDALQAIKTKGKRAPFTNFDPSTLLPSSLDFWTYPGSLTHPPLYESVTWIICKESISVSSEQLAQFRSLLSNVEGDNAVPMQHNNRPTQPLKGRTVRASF
UniProt P22748, 19-284 limits assumed: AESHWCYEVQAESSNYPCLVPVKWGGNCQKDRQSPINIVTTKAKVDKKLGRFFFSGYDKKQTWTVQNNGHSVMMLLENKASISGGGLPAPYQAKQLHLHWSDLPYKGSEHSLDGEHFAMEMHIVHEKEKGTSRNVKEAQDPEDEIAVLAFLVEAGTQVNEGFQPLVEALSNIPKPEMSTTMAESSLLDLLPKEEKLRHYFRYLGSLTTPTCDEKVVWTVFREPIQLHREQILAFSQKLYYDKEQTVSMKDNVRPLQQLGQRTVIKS
UniProt O43570, 25-354 limits assumed: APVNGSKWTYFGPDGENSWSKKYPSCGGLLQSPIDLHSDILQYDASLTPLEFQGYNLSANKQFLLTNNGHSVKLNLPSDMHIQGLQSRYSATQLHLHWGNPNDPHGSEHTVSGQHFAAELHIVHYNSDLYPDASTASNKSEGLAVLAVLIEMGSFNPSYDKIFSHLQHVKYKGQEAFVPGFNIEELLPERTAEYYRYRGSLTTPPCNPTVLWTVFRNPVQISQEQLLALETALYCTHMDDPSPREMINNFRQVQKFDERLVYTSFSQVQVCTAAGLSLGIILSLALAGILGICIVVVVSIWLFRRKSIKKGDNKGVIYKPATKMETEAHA
UniProt P43166: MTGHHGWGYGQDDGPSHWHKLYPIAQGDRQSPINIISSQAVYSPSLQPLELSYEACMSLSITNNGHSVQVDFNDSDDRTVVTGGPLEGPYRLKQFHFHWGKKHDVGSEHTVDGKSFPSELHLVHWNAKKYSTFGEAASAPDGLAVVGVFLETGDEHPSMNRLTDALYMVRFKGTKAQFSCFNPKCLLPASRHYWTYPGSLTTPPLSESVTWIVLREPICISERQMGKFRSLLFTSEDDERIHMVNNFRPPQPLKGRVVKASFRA
UniProt P35218, 39-305 limits assumed: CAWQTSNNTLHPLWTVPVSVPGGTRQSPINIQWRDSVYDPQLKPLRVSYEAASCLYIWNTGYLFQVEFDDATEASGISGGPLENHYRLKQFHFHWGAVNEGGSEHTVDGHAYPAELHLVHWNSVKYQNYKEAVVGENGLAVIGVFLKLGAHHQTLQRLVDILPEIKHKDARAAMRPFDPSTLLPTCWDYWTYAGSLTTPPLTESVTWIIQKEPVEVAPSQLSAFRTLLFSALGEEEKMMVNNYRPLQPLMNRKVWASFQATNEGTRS
UniProt Q9ULX7, 16-337 limits assumed: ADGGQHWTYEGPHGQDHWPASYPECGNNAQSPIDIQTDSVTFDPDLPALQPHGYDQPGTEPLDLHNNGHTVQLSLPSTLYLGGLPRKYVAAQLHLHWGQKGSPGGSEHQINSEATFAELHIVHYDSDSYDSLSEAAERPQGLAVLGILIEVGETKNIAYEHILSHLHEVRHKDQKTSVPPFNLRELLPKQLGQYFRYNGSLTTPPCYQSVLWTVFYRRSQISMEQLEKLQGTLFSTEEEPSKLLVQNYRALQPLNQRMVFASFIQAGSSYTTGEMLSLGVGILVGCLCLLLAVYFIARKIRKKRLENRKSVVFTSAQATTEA
UniProt Q8N1Q1: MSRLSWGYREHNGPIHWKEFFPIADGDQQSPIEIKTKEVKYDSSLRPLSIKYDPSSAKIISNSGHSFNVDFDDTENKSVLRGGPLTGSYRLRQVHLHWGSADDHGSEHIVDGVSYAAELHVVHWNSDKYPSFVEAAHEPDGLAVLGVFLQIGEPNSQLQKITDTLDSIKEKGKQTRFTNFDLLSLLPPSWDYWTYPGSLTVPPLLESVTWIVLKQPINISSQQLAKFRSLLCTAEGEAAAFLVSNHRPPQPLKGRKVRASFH

One may read the Ki as a dissociation constant, usually derived from enzyme kinetics or from competition with a known ligand.

In the case of `NS(=O)(=O)c1ccc(C(=O)NCC2(Nc3ccccc3)CCN(CCc3ccccc3)CC2)cc1`, the Ki on Carbonic anhydrase 1 came out at 0.059 µM; at Carbonic anhydrase 2, 0.0086 µM; on Carbonic anhydrase 4, 0.562 µM; on Carbonic anhydrase 9, 0.026 µM; at Carbonic anhydrase 12, 0.0043 µM.

On to `N#CC1(Nc2ccc3ccccc3c2)CCN(CCc2ccc(S(N)(=O)=O)cc2)CC1`, for which, on Carbonic anhydrase 7, the Ki came out at 0.0089 µM.

On to `NS(=O)(=O)c1ccc(CCN2CCC(Nc3ccc4ccccc4c3)CC2)cc1`, for which the inhibitory constant (Ki) on Carbonic anhydrase 9 was found to be 0.037 µM.

Regarding `Cc1ccc(NC2CCN(CCc3ccc(S(N)(=O)=O)cc3)CC2)cc1`, the Ki in [1] came out at 0.097 µM.

On to `NS(=O)(=O)c1ccc(NC(=O)NCC2(Nc3ccccc3)CCN(CCc3ccccc3)CC2)cc1`, for which the Ki on Carbonic anhydrase 14 was found to be 0.08 µM; at Carbonic anhydrase 13, 0.085 µM.

For the origin of these results see BindingDB's records for 37678143.
